Biological target: T1, human neutrophil elastase (NE) (Homo sapiens, UniProt P08246)
T1 sequence (P08246 30-267): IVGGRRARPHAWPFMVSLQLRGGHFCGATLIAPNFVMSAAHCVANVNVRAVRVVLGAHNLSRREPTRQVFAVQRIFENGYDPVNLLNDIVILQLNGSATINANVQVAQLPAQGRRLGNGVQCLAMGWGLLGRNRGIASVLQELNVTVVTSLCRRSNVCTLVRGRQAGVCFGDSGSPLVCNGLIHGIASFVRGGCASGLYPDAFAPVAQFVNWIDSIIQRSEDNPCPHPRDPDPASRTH
Experiment: Absorbance-based protease activity assay, human NE
Format: biochemical

An IC50 of 189 nM was found for CC(C)(C)C(=O)Oc1ccc(S(=O)(=O)Nc2ccccc2C(=O)NCC(=O)O)cc1 [sivelestat] in this work.

Reference: paper PMC10834355 (Cell metabolism, 2023)
